How the values were obtained:
[1] = tested on: primary human neutrophils; experiment: α-ClFALD and FALD-GSH in PMA-activated primary human neutrophils, with or without aminotriazole
[2] = tested on: RAW 264.7 cells; experiment: HDA-GSH production in RAW 264.7 cells treated with 2-ClHDA; settings: 10-50 μM 2-ClHDA, 8 hours, vs EtOH controls
[3] = tested on: Eosinophils isolated from allergen-hypersensitive individuals; experiment: FALD-GSH accumulation in PMA-stimulated eosinophils; settings: 200 nM PMA, 100 micromolar NaBr, 1 h
[4] = 200 nM PMA treated neutrophils at 30 min, aminotriazole

aminotriazole
2-ClHDA and 2-ClODA levels [1, 4]: greatly reduced | HDA-GSH and ODA-GSH levels [1, 4]: significantly reduced | α-ClFAlD production ([1]; primary human neutrophils, addition of aminotriazole): abolished

CCCCCCCCCCCCCCC(Cl)C=O (stereo not drawn)
HDA-GSH levels [2]: elevated in a concentration dependent manor

phorbol-12-myristate 13-acetate
HDA-GSH and ODA-GSH production [3]: eosinophil peroxidase-dependent production of HDA-GSH and ODA-GSH | time course of α-ClFAlD (2-ClHDA and 2-ClODA) production ([1]; 200 nM PMA stimulated neutrophils): elevated by 5 min, peak by 30 min and begin to decline by 60 min

Source: US10983137B2, “Diagnosis of leukocyte-mediated disease and halogen gas exposure” (dated 2021)
